Measured values published in PubChem BioAssay AID2023 (NMMLSC, 2009).
Only a part is listed here, and it is no random draw. Active and inactive are the calls of the source.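 Rule for the calls: active = GFP response vs DMSO above a set limit, about the screen mean plus 3 SD (cut at about 150% in these data); inconclusive = under 70 cell events counted for the yeast strain; inactive = the rest.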

Assay: modulators of LAP4-GFP expression in yeast, primary screen, S. cerevisiae, multiplex flow cytometry, MLPCN library (AID 2023)
Conditions: 3 h, at 10 µM, hits give high values, median GFP as percent of DMSO wells

SMILES | GFP response vs DMSO
CCC(=O)N(c1ccccc1)C1(COC)CCN(CCc2cccs2)CC1 | inactive: 105%
CCC(=O)N(c1ccccc1)C1(COC)CCN(CCn2nnn(CC)c2=O)CC1 | inactive: 104%
